Source: US20240157166A1, “ALTERNATING MAGNETIC FIELDS AND ANTIBIOTICS TO ERADICATE BIOFILM ON METAL IN A SYNERGISTIC FASHION” (priority 2021, published 2024)

Test system: P. aeruginosa (PAO1) biofilm
Assay: Biofilm CFU on rings, antibiotic with or without iAMF, PAO1
Assay type: cell-based
Description: Biofilm preparation, treatment and quantification.
Doses were delivered at 0 and 12 hours and ring biofilm burden was quantified at various time points as above. For S. aureus experiments, biofilm of UAMS1 were prepared on stainless steel rings according to the culturing protocol and incubated with 2 μg/mL of ceftriaxone or 2 μg/mL of linezolid, in 10 mL TSB media. […] Doses were delivered at 0 and 12 hours and biofilm burden was quantified at 24 hours.

O=C(O)c1cn(C2CC2)c2cc(N3CCNCC3)c(F)cc2c1=O [ciprofloxacin]
reduction in biofilm (CFU) (iAMF (Tmax 50, 65 or 80 °C, doses at 0 and 12 h) combined with 0.5 ug/ml ciprofloxacin, 24 h): down to the limit of detection
magnitude of biofilm reduction, 7-day versus 2-day biofilm (iAMF (Tmax=65 °C, 15 min per dose) and 0.5 μg mL-1 ciprofloxacin): no significant difference
biofilm CFU, iAMF and ciprofloxacin compared to ciprofloxacin alone (plastic rings, iAMF Tmax=65 °C): no significant difference
